Tests used:
rat mGlu5 = rat mGlu5 (Rattus norvegicus (Rat), UniProt P31424); experiment: mGlu5 Ca2+ flux assay; type: cell-based; settings: read-out: rat mGlu5 EC50 or IC50
Description: The cells were grown overnight at 37° C. in the presence of 5% CO2. […] Dye was removed, 20 μL of assay buffer was added, and the plate was incubated for 5 minutes at room temperature. Ca^2+ flux was measured using the Functional Drug Screening System (FDSS7000, Hamamatsu, Japan). […] All test compounds were dissolved and diluted to a concentration of 10 mM in 100% DMSO. […] Calcium fluorescence measures were recorded as fold over basal fluorescence; raw data was then normalized to the maximal response to glutamate. […] The raw data file containing all time points was used as the data source in the analysis template. This was saved by the FDSS as a tab-delimited text file. Data were normalized using a static ratio function (F/F0) for each measurement of the total 360 values per well divided by each well's initial value. […] This is sufficient time to capture the peak amplitude of the cellular calcium response. […] EC50 values for test compounds were generated by fitting the normalized values versus the log of the test compound concentration (in mol/L) using a 4 parameter logistic equation where none of the parameters were fixed. Each of the three values collected at each concentration of test compound were weighted evenly.

Protein sequences, listed by entry. Tags and fused reporters are not part of them. Residues count along the entry.
UniProt P31424, 21-1203: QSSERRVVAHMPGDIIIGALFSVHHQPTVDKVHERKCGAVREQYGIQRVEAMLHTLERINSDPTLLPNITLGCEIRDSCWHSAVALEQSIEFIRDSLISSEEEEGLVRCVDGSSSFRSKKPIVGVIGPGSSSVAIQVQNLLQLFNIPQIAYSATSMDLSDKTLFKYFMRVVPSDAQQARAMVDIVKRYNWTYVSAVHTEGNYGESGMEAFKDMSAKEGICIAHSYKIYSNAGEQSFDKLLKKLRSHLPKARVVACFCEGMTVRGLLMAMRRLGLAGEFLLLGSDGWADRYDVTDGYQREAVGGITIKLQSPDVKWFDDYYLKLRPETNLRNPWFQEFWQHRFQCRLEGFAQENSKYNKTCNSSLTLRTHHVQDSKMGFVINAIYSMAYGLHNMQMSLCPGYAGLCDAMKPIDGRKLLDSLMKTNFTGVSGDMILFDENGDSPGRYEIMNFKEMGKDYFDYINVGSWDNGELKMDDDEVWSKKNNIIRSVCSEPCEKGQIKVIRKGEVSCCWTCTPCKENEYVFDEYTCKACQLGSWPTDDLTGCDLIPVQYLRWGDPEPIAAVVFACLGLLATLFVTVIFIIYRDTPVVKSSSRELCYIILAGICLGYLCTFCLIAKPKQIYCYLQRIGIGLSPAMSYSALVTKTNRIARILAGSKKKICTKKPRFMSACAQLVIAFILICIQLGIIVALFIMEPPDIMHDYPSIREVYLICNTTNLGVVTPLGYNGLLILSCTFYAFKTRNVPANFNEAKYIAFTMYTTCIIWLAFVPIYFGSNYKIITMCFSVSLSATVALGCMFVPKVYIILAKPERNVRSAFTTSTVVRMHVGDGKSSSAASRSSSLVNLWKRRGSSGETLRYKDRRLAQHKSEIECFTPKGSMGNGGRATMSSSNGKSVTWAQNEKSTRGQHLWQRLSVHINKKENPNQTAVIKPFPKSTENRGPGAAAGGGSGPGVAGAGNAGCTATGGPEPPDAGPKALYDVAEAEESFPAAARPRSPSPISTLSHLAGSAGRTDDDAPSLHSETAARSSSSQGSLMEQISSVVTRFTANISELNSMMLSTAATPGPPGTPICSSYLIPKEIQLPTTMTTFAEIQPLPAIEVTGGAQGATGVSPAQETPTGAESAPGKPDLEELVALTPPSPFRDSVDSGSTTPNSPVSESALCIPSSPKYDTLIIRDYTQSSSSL
UniProt P31422, 23-879: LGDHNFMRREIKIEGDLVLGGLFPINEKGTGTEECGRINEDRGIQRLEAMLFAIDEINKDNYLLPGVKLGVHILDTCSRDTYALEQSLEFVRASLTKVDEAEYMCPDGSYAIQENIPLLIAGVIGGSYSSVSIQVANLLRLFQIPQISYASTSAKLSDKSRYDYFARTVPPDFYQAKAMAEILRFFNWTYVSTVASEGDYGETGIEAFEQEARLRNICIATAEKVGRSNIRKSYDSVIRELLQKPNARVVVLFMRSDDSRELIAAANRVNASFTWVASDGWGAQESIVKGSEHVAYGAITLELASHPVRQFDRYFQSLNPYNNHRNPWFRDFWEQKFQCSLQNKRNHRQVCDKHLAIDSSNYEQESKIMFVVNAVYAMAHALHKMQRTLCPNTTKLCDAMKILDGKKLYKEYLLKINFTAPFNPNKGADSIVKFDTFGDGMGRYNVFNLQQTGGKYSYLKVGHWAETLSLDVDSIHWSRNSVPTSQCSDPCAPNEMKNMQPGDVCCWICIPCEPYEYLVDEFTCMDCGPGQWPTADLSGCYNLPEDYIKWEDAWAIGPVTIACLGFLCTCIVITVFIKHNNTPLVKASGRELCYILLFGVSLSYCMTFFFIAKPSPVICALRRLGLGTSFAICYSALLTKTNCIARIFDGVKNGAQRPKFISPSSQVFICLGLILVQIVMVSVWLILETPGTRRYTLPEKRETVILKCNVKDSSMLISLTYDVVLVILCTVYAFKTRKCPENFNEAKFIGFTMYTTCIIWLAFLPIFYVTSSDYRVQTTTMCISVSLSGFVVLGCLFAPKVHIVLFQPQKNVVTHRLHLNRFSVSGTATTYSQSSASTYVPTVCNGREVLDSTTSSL

rat mGlu3 = rat mGlu3 (Rattus norvegicus (Rat), UniProt P31422); experiment: mGlu3 Ca2+ flux assay; type: cell-based; settings: NAM potency, decrease of glutamate EC80 response; >30,000 = no measurable activity; >10,000 = no plateau
Description: The cells were grown overnight at 37° C. in the presence of 5% CO2. […] Dye was removed, 20 μL of assay buffer was added, and the plate was incubated for 10 minutes at room temperature. Ca^2+ flux was measured using the Functional Drug Screening System (FDSS7000, Hamamatsu, Japan). […] All test compounds were dissolved and diluted to a concentration of 10 mM in 100% DMSO. […] Calcium fluorescence measures were recorded as fold over basal fluorescence; raw data was then normalized to the maximal response to glutamate. Antagonism of the agonist response of the mGlu3 receptor in the present invention was observed as a decrease in response to nearly maximal concentrations of glutamate in the presence of compound compared to the response to glutamate in the absence of compound. The raw data file containing all time points was used as the data source in the analysis template. This was saved by the FDSS as a tab-delimited text file. Data were normalized using a static ratio function (F/F0) for each measurement of the total 360 values per well divided by each well's initial value. […] This is sufficient time to capture the peak amplitude of the cellular calcium response. […] EC50 values for test compounds were generated by fitting the normalized values versus the log of the test compound concentration (in mol/L) using a 4 parameter logistic equation where none of the parameters were fixed. […]

Compound | EC50 (rat mGlu5) [µM] | IC50 (rat mGlu3) [nM]
C[C@H]1CN(c2ccc(F)cc2)C(=O)c2cc(CNc3c(F)cccc3F)nn21 [Compound 73, (S)-2-(((2,6-difluorophenyl)amino)methyl)-5-(4-fluorophenyl)-7-methyl-6,7-dihydropyrazolo[1,5-a]pyrazin-4(5H)-one] | > 10 | –
C[C@@H]1CN(c2ccc(F)cc2)C(=O)c2cc(CNc3c(F)cccc3F)nn21 [Compound 72, (R)-2-(((2,6-difluorophenyl)amino)methyl)-5-(4-fluorophenyl)-7-methyl-6,7-dihydropyrazolo[1,5-a]pyrazin-4(5H)-one] | > 10 | 1920
